Assay results published in patent US20120258109A1.

Biological target: TGF-alpha and Epiregulin expressed on HT-29 cells
Assay: cell-based or functional assay

Mean Ringspot Total Intensity of Fluorescence, HT-29 internalization, 40 ug/mL, 0 min post addition: 89
Mean Ringspot Total Intensity of Fluorescence, HT-29 internalization, 40 ug/mL, 5 min post addition: 261
Mean Ringspot Total Intensity of Fluorescence, HT-29 internalization, 40 ug/mL, 15 min post addition: 717
Mean Ringspot Total Intensity of Fluorescence, HT-29 internalization, 40 ug/mL, 30 min post addition: 1490
Mean Ringspot Total Intensity of Fluorescence, HT-29 internalization, 40 ug/mL, 60 min post addition: 4130
Mean Ringspot Total Intensity of Fluorescence, HT-29 internalization, 40 ug/mL, 120 min post addition: 4450
Mean Ringspot Total Intensity of Fluorescence, HT-29 internalization, dose 0 ug/ml (background), 2 h: 1460
Mean Ringspot Total Intensity of Fluorescence, HT-29 internalization, dose 0.34 ug/ml, 2 h: 2430
Mean Ringspot Total Intensity of Fluorescence, HT-29 internalization, dose 0.69 ug/ml, 2 h: 3440
Mean Ringspot Total Intensity of Fluorescence, HT-29 internalization, dose 1.38 ug/ml, 2 h: 4350
Mean Ringspot Total Intensity of Fluorescence, HT-29 internalization, dose 2.75 ug/ml, 2 h: 6500
Mean Ringspot Total Intensity of Fluorescence, HT-29 internalization, dose 5.5 ug/ml, 2 h: 8470
Mean Ringspot Total Intensity of Fluorescence, HT-29 internalization, dose 11 ug/ml, 2 h: 11500
Mean Ringspot Total Intensity of Fluorescence, HT-29 internalization, dose 22 ug/ml, 2 h: 15100
Mean Ringspot Total Intensity of Fluorescence, HT-29 internalization, dose 44 ug/ml, 2 h: 17500
B1: Antibody I (antibody, human IgG4 S228P, kappa, F234A L235A)
heavy: QVQLVQSGAEVKKPGSSVKVSCKASGYTFTDAYINWVRQAPGQGLEWMGWIWPGPVITYYNPKFKGRVTITADKSTSTAYMELSSLRSEDTAVYYCARREVLSPFAYWGQGTTVTVSSASTKGPSVFPLAPCSRSTSESTAALGCLVKDYFPEPVTVSWNSGALTSGVHTFPAVLQSSGLYSLSSVVTVPSSSLGTKTYTCNVDHKPSNTKVDKRVESKYGPPCPPCPAPEAAGGPSVFLFPPKPKDTLMISRTPEVTCVVVDVSQEDPEVQFNWYVDGVEVHNAKTKPREEQFNSTYRVVSVLTVLHQDWLNGKEYKCKVSNKGLPSSIEKTISKAKGQPREPQVYTLPPSQEEMTKNQVSLTCLVKGFYPSDIAVEWESNGQPENNYKTTPPVLDSDGSFFLYSRLTVDKSRWQEGNVFSCSVMHEALHNHYTQKSLSLSLG
light: DIVMTQSPDSLAVSLGERATINCRSSQSIVHSTGNTYLEWYQQKPGQPPKLLIYKVSNRFSGVPDRFSGSGSGTDFTLTISSLQAEDVAVYYCFHGTHVPYTFGGGTKVEIKRTVAAPSVFIFPPSDEQLKSGTASVVCLLNNFYPREAKVQWKVDNALQSGNSQESVTEQDSKDSTYSLSSTLTLSKADYEKHKVYACEVTHQGLSSPVTKSFNRGEC
